Literature values, collected in patent US20250034106A1, “3-CYCLOAMINO-INDOLE COMPOUNDS AS SEROTONERGIC AGENTS USEFUL FOR THE TREATMENT OF DISORDERS RELATED THERETO” (Mindset Pharma Inc., priority 2021, published 2025).

Target: human 5-HT1A (Homo sapiens (Human), UniProt P08908)
Conditions: human receptor; read-out: binding affinity 5-HT1A; cited from earlier work

For `COc1ccc2[nH]cc(CCN(C)C)c2c1` [Compound 5-MeO-DMT, 5-methoxy-N,N-dimethyltryptamine], the Ki is given as 3 ± 0.2 nM.
